US7060683B2, “Hydroxamate-containing cysteine and serine protease inhibitors” (Cephalon, Inc., priority 1998, dated 2006)

Target: T1, Recombinant human calpain I (Homo sapiens, UniProt P07384)
T1 construct: made in house
T1 sequence (P07384 1-714): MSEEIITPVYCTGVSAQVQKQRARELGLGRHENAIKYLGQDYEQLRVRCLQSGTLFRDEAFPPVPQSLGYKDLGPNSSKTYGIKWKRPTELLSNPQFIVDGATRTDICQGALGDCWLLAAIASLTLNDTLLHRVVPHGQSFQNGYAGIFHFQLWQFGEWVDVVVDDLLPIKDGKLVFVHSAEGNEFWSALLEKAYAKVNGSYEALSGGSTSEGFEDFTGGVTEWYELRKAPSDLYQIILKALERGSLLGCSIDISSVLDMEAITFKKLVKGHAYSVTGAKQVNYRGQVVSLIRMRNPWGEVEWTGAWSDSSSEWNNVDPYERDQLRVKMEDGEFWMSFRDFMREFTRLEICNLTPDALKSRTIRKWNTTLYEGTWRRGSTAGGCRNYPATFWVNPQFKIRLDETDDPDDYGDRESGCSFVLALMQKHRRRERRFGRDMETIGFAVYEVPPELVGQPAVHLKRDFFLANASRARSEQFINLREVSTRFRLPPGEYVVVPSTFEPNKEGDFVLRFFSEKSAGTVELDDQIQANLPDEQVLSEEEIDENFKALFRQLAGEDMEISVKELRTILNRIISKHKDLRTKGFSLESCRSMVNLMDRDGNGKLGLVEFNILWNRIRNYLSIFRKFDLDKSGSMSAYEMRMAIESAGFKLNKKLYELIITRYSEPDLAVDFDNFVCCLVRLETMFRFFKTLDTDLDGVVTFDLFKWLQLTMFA
T1 sequence (P04632 1-268 partner): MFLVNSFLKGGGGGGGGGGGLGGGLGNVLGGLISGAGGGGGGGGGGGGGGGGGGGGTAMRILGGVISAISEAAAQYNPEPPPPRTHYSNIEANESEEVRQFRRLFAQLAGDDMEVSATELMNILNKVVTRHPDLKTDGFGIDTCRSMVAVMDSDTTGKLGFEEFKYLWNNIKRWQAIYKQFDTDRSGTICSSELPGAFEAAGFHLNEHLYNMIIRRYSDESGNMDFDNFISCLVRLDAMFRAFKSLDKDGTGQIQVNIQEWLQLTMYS
Test: Inhibition of Calpain (Succ-Leu-Tyr-MNA substrate hydrolysis)
Assay type: biochemical
Settings: 0.2 mM Succ-Leu-Tyr-MNA, pH 7.5, five to seven concentrations
Experimental: To evaluate inhibitory activity, stock solutions (40 times concentrated) of each compound to be tested were prepared in 100% anhydrous DMSO and 5 μL of each inhibitor preparation were aliquoted into each of three wells of a 96-well plate. Recombinant human calpain I, prepared by the method of Meyer et al. (Biochem., J. 1996, 314: 511–519), was diluted into assay buffer (i.e., 50 mM Tris, 50 mM NaCl, 1 mM EDTA, 1 mM EGTA, and 5 mM β-mercaptoethanol, pH 7.5, including 0.2 mM Succ-Leu-Tyr-MNA), and 175 μl was aliquoted into the same wells containing the independent inhibitor stocks as well as to positive control wells containing 5 μl DMSO, but no compound. To start the reaction, 20 μl of 50 mM CaCl2 in assay buffer was added to all wells of the plate, excepting three, which were used as background signal baseline controls. Substrate hydrolysis was monitored every 5 minutes for a total of 30 minutes. […]
Inhibition of calpain I activity was calculated as the percent decrease in the rate of substrate hydrolysis in the presence of inhibitor relative to the rate in its absence. […] The results were plotted as percent inhibition versus log inhibitor concentration, and the IC50 was calculated by fitting the data to the four-parameter logistic equation shown below using the program GraphPad Prism (GraphPad Software, Inc., San Diego, Calif.). y=d+[(a−d)/(1+(x/c)^b)] […]

Compound: CC(C)[C@H](NC(=O)OCc1ccccc1)C(=O)N[C@@H](Cc1ccccc1)C(=O)C(=O)NOCc1ccccc1 [Example 10, Cbz-Val-Phe-CONHOBn]
- IC50: 0.012 µM
